IC50 data for 16 compounds are collected here from patent US8846746B2, “Pyrazole compound and pharmaceutical use thereof” (Japan Tobacco Inc., priority 2011, dated 2014).

By UniProt entry, the sequences of proteins in these tests, tags left out. Where a name states a change or a piece, a line headed by the entry shows the natural chain unless it says otherwise.
UniProt P13866: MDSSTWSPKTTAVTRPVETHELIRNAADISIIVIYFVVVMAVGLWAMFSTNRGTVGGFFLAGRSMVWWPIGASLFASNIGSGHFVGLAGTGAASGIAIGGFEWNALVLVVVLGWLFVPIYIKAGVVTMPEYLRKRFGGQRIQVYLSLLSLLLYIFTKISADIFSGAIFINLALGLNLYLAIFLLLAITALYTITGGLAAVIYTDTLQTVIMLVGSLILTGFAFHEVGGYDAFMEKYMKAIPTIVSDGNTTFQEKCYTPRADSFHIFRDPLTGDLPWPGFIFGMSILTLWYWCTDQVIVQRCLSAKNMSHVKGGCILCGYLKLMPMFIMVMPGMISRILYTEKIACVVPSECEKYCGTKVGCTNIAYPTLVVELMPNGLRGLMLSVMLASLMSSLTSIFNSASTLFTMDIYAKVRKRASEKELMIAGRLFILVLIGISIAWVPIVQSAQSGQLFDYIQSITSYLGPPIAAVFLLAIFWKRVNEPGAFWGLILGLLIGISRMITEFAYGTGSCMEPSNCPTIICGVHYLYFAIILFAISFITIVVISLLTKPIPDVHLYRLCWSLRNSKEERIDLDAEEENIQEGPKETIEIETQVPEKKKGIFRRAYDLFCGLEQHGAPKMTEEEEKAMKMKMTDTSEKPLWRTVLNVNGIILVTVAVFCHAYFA

One may read the IC50 as the concentration at which inhibition is half-maximal. A high value points to weaker potency.

The first assay deals with human SGLT1 (Homo sapiens (Human), UniProt P13866). The experiment in a line: SGLT1 inhibitory activity: 14C-AMG uptake into CHO-K1 cell line stably expressing human SGLT1. The class given is cell-based. As to conditions: CHO-K1 cells expressing human SGLT1. How it is done: SGLT1 inhibitory activity of a test compound (IC50 value) was calculated based on an amount of intake into a cell of labeled α-methyl-D-glucopyranoside (^14C-AMG) which is transported by SGLT1.
1) Construction of Human SGLT1 Expression Plasmid
A DNA fragment containing human SGLT1, wherein NheI recognition and cleavage sequence was added upstream of a Kozac consensus sequence of the vector; and a stop codon (TAG) and a SalI recognition and cleavage sequence was added just downstream of a coding region of the human SGLT1, was amplified by PCR using pCMV6-hSGLT1 (OriGene) as a template. The purified DNA fragment was cleaved by restriction enzymes NheI and SalI, and the obtained fragment was ligated into pcDNA3.1 (+) which was cleaved by NheI and XhoI to construct human SGLT1 expression plasmid.
2) Establishment of Stable Cell Lines Expressing Human SGLT1
A human SGLT1 expression plasmid pcDNA-hSGLT1 was transfected into CHO-K1 cells by Lipofectamine-2000 (Invitrogen). The cells were cultured in the presence of G418 (Nakalai tesque) and drug-resistant cells were selected. A cell line having the highest S/B ratio of an amount of ^14C-AMG uptake per cell treated by solvent to an amount of ^14C-AMG uptake per cell treated by phlorizin (SGLT inhibitor) was selected from the drug-resistant cells as a stable cell lines expressing human SGLT1.
3) Evaluation of SGLT1 Inhibitory Activity
The stable cell line expressing human SGLT1 was seeded at 5×10^4 cells/well on BioCoat™ Poly-D-Lysine 96 well plate with Lid (Becton Dickinson and Company) and cultured at 37° C. under 5% CO2 overnight. The medium was replaced with 100 μL/well of a Na (−) buffer (140 mM choline chloride, 2 mM KCl, 1 mM MgCl2, 1 mM CaCl2, 10 mM HEPES, 5 mM Tris, pH7.4) followed by incubation for 20 minutes at 37° C. under 5% CO2. After removing the Na (−) buffer, a test compound solution which was prepared from Na (+) buffer (140 mM NaCl, 2 mM KCl, 1 mM MgCl2, 1 mM CaCl2, 10 mM HEPES, 5 mM Tris, pH7.4) containing BSA was added thereto at 40 μL/well. In addition, Na (+) buffer containing 8 kBq of ^14C-AMG and 2 mM AMG was added thereto at 40 μL/well, and was mixed well. Na (−) buffer containing BSA was added to a blank well at 40 μL/well and additionally adding a Na (+) buffer containing 8 kBq of ^14C-AMG and 2 mM AMG, and was mixed well. Cells were incubated for 1 hour at 37° C. under 5% CO2. After the reaction, the cells were washed twice with 100 μL/well of iced wash buffer (100 mM AMG, 140 mM choline chloride, 2 mM KCl, 1 mM MgCl2, 1 mM CaCl2, 10 mM HEPES, 5 mM Tris, pH7.4), then lysed in 50 μL/well of a 0.2N aqueous solution of NaOH. The cell lysate was transferred to OptiPlate96 (Perkin-Elmer) and 100 μL/well of MicroScint-40 (Perkin-Elmer) was dispensed. The radioactivity was counted by TOPCOUNT NXT (Perkin-Elmer).
A data was obtained by deducting the average value (CPM) of blank wells from the average value (CPM) of each treated well. The inhibition ratio (%) was calculated by the following formula: inhibition rate (%)=[(A−B)/A]×100, where A is a data of the solvent control, and B is a data of a test compound.
As to `CCCCCCn1nc(NC(=O)C2CNC(=O)C2)cc1-c1cccc(CCC)c1` (racemic) [Example 14], the concentration for half-maximal inhibition (IC50) came out at 12 nM.

In the case of `CCCc1cccc(-c2cc(NC(=O)C3CNC(=O)C3)nn2CCC)c1` (racemic) [Example 15], half-maximal inhibition (IC50) required 40 nM.

For `CC(C)n1nc(NC(=O)C2CNC(=O)C2)cc1-c1ccccc1` (racemic) [Example 16], it took 11700 nM to reach half-maximal inhibition (IC50).

Compound `CCCc1cccc(-c2cc(NC(=O)C3CCC(=O)NC3)nn2-c2ccccc2)c1` (single isomer, unassigned) [Example 96] displayed an IC50 of 370 nM.

In the case of `CCCc1cccc(-c2cc(NC(=O)[C@@H]3CNC(=O)[C@H]3C)nn2-c2ccccc2)c1` [Example 90], the midpoint of inhibition, the IC50, lay at 34 nM.

Turning to `CCCc1cccc(-c2cc(NC(=O)[C@H]3CNC(=O)[C@@H]3C)nn2-c2ccccc2)c1` [Example 91], the IC50 was 1.8 nM.

Regarding `CCCc1cccc(-c2cc(NC(=O)[C@H]3CNC(=O)C3)nn2-c2ccccc2F)c1` [Example 117], the IC50 is 1.4 nM.

The assay is the same for the next values; noted with them: CHO-K1 cells stably expressing human SGLT1.
Consider `O=C1NCC(C(=O)Nc2cc(-c3cccc(OC(F)(F)F)c3)n(-c3ccccc3)n2)C1CO` (racemic) [Example 253], for which the IC50 was 14 nM.

For the compound `CCCc1cccc(-c2cc(NC(=O)C3CCNC(=O)CC3)nn2-c2ccccc2)c1` (racemic) [Example 274], the IC50 was 180 nM.

`CCCc1cccc(-c2cc(NC(=O)C3CNC(=O)OC3)nn2-c2ccccc2)c1` (racemic) [Example 339] gave an IC50 of 57 nM.

`CCC(C)(C)C(O)c1cccc(-c2cc(NC(=O)[C@@H]3CNC(=O)C3)nn2-c2ccccc2)c1` (mixture of isomers) [Example 434] gave an IC50 of 21 nM.

Turning to `CCCc1cccc(-c2cc(NC(=O)C3CNC(=O)C3(C)C)nn2-c2ccccc2)c1` (single isomer, unassigned) [Example 397], inhibition was half-maximal at 16 nM (IC50).

`CCCc1cccc(-c2cc(NC(=O)[C@@H]3CNC(=O)C3)nn2-c2ccccc2OCC)c1` [Example 377] gave an IC50 of 9.7 nM.

`COCCOc1cc(-n2nc(NC(=O)[C@@H]3CNC(=O)C3)cc2-c2cccc(COCC(F)(F)F)c2)ccc1F` [Example 424]: it took 7.1 nM to reach half-maximal inhibition (IC50).

In the case of `CC(C)Oc1cc(-n2nc(NC(=O)[C@@H]3CNC(=O)C3)cc2-c2cccc(CO[C@H](C)C(F)(F)F)c2)ccc1F` [Example 426], half-maximal inhibition (IC50) was put at 2.05 nM.

As to `CCCc1cccc(-c2cc(NC(=O)[C@@H]3CNC(=O)C3)nn2-c2cccc(COC)c2)c1` [Example 458], the IC50 is 5.9 nM.
